Test results: PMC10856354 (International Journal of Molecular Sciences, 2024)

Sequences of proteins named here, by UniProt entry; tags and fusion partners are left off. A change or cut given only in a name is not applied to a line headed by its entry.
UniProt P30874: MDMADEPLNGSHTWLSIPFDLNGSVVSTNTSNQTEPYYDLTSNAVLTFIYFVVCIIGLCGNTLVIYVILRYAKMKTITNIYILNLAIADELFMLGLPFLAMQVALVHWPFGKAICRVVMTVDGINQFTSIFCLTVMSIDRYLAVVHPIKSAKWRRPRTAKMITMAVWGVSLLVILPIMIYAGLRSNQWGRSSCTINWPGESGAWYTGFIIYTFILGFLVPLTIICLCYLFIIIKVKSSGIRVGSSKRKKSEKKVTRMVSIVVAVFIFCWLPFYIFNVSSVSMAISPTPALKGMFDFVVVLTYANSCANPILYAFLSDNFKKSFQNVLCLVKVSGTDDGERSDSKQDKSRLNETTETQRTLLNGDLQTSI

Molecular target: T1, hSST2R (Homo sapiens, UniProt P30874)
T1 construct: expressed in transfected cells
Assay: Immunofluorescence microscopy-based internalization assay in HEK293-hSST2R cells
Assay type: cell-based
Details: 30 min at 37 °C
Protocol: Figure 3 Agonist stimulated hSST2R-internalization in HEK293-hSST2R cells determined by immunofluorescence microscopy.
An immunofluorescence microscopy-based internalization assay for hSST2R was performed in HEK293-hSST2R cells, grown on poly-DLys (20 μg/mL) (Sigma-Aldrich, St. Louis, MO, USA) coated 35-mm four-well plates (Cellstar, Greiner Bio-One GmbH, Frickenhausen, Germany). […] HEK293-hSST2R cells treated with vehicle alone were used as a negative control. The cells were then rinsed twice with PS (100 mM phosphate buffer containing 0.15 M sucrose), fixed and permeabilized for 7 min with cold methanol (−20 °C), rinsed twice with PS, and then blocked for 60 min at room temperature with PS containing 0.1% BSA. Next, cells were incubated for 60 min at room temperature with the hSST2R-specific primary antibody R2-88 (provided by Dr. A. Schönbrunn, Houston, TX, USA) diluted 1:1000 in PS and washed 3 × 5 min with PS containing 0.1% BSA. The cells were incubated for 60 min at room temperature in the dark with the secondary antibody Alexa Fluor 488 goat anti-rabbit IgG (H+ L) (Molecular Probes, Inc., Eugene, OR, USA) diluted in PS (1:600), washed 3 × 5 min with PS containing 0.1% BSA, embedded with PS/glycerol 1:1, and covered with a glass cover slip. […]

## [Tyr^3]octreotide [TOC, reference compound]
10 nM
  ligand-induced hSST2R internalization (agonism): clearly able to trigger the internalization of hSST2R
1 µM
  ligand-induced hSST2R internalization (agonism): clearly able to trigger the internalization of hSST2R
